From patent publication US9028858B2 (Coloplast A/S, priority 2003, dated 2015)
Read-outs that look alike come from different tables or passages of the source.

Conditions: pH 4, no stabilizer

Question: With `OO` [Std H2O2, hydrogen peroxide] as the molecule, how does the “Calculated degraded amount of H2O2 (%) after 2 years storage at 23° C.” value (0 mM citrate) read?
Answer: 15.4%

Question: And the “Calculated degraded amount of H2O2 (%) after 2 years storage at 23° C.” value (25 mM citrate)?
Answer: 39.2%
